Measured values reported in ChEMBL document CHEMBL1146292, “Dual serotonin transporter/histamine H3 ligands: Optimization of the H3 pharmacophore” (Bioorg Med Chem Lett, 2007).

By UniProt entry, the sequences of proteins in these tests, tags left out. Where a name states a change or a piece, a line headed by the entry shows the natural chain unless it says otherwise.
UniProt Q9Y5N1: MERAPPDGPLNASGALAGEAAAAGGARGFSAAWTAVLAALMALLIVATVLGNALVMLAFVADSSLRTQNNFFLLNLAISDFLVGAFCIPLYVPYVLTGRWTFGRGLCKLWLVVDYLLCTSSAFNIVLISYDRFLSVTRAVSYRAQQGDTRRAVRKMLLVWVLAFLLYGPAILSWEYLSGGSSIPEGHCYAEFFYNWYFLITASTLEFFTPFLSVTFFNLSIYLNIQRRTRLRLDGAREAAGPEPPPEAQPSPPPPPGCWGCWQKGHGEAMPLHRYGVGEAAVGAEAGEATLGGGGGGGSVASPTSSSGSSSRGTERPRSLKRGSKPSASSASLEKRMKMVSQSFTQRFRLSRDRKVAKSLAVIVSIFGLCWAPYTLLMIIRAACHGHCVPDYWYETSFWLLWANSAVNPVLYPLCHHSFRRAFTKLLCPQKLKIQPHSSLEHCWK
UniProt P31652, whole entry: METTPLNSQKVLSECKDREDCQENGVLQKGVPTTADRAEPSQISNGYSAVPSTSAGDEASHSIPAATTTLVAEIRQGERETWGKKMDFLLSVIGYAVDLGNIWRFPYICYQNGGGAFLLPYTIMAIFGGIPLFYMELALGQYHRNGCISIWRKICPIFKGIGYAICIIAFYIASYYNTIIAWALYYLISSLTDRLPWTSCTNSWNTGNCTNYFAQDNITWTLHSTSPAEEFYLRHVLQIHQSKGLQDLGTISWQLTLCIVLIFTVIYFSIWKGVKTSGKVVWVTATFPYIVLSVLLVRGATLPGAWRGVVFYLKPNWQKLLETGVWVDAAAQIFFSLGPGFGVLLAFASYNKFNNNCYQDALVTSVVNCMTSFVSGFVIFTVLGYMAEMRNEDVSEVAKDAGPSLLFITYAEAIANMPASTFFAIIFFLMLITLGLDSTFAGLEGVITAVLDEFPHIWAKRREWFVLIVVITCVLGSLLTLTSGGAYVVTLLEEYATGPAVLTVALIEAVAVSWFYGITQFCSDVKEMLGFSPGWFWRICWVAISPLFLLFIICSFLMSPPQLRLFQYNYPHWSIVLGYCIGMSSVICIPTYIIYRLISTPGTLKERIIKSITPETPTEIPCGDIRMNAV

Columns and labels:
Histamine H3 receptor = Histamine H3 receptor (Homo sapiens, UniProt Q9Y5N1); experiment: Binding affinity to human histamine H3 receptor
Summary of the method: (§1)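 Means of at least three independent experiments, each run in triplicate; standard error of the mean reported.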

[1] = target: Sodium-dependent serotonin transporter (Rattus norvegicus, UniProt P31652); experiment: Binding affinity to rat SERT; summary of the method: as §1

| Ki (Histamine H3 receptor) [nM] | Ki [1] [nM] | Compound |
| --- | --- | --- |
| 2 | – | COc1ccc(C2CN(C)Cc3cc(OCCCN4CCC(F)CC4)ccc32)cc1 (stereo not drawn) |
| 14 | – | COc1ccc(C2CN(C)Cc3cc(OCCCN4CCCC(F)(F)C4)ccc32)cc1 (stereo not drawn) |
| – | 2 | COc1ccc(C2CN(C)Cc3cc(OCCCN4CCCCC4)ccc32)cc1 (stereo not drawn) |
